Data taken from patent US9475755B2, “Prophylactic agent for chronic kidney disease” (SBI Pharmaceuticals Co., Ltd., priority 2011, dated 2016).

Assays:
chronic kidney disease [1] = assay: Example 1: ingestion by a person with long-term chronic kidney disease; type: in vivo, human
From the text: A person suffering long-term from chronic kidney disease was examined. This person has not been diagnosed with diabetes. Urea nitrogen, serum creatinine, eGFR, and the diagnosis of chronic kidney disease on (1) Dec. 22, 2010 and on (2) Feb.

chronic kidney disease [2] = assay: Example 2: ingestion by a person diagnosed with chronic kidney disease, dose switched 50 mg / 5 mg / 50 mg; type: in vivo, human
[3] = (e) after one month of returning to 50 mg aminolevulinic acid phosphate + 57.4 mg sodium ferrous citrate

**Q.** For aminolevulinic acid phosphate, which “chronic kidney disease (overall statement)” value (chronic kidney disease [1]; 50 mg aminolevulinic acid phosphate + 57.4 mg sodium ferrous citrate each day, about seven weeks) is on record?
**A.** improved

**Q.** And the Serum creatinine (chronic kidney disease [1]; 2011/02/24, after 50 mg aminolevulinic acid phosphate + 57.4 mg sodium ferrous citrate each day for about seven weeks, before ingestion 2.77)?
**A.** 2.37 mg/dL

**Q.** And the eGFR (chronic kidney disease [1]; 2011/02/24, after 50 mg aminolevulinic acid phosphate + 57.4 mg sodium ferrous citrate each day for about seven weeks, before ingestion 13.80)?
**A.** 16.70 mL/min/1.73 m^2

**Q.** What about the Urea nitrogen (chronic kidney disease [1]; 2011/02/24, after 50 mg aminolevulinic acid phosphate + 57.4 mg sodium ferrous citrate each day for about seven weeks, before ingestion (2010/12/22) 47.00) of the same substance?
**A.** 37.00 mg/dL

**Q.** What about the “Diagnosis of chronic kidney disease” value (chronic kidney disease [1]; 2011/02/24, after 50 mg aminolevulinic acid phosphate + 57.4 mg sodium ferrous citrate each day for about seven weeks, before ingestion Fifth stage (renal failure)) of the same substance?
**A.** Fourth stage

**Q.** And the Serum creatinine (chronic kidney disease [2]; (b) after one month of 50 mg aminolevulinic acid phosphate + 57.4 mg sodium ferrous citrate, before ingestion (a) 1.38)?
**A.** 1.21 mg/dL

**Q.** And the Urea nitrogen (chronic kidney disease [2]; (b) after one month of 50 mg aminolevulinic acid phosphate + 57.4 mg sodium ferrous citrate, before ingestion (a) 15.60)?
**A.** 14.00 mg/dL

**Q.** What about the eGFR (chronic kidney disease [2]; (b) after one month of 50 mg aminolevulinic acid phosphate + 57.4 mg sodium ferrous citrate, before ingestion (a) 40.60) of the same substance?
**A.** 46.90 mL/min/1.73 m^2

**Q.** And the Serum creatinine (chronic kidney disease [2]; [3])?
**A.** 1.16 mg/dL

**Q.** And the Urea nitrogen (chronic kidney disease [2]; [3])?
**A.** 13.10 mg/dL

**Q.** And the eGFR (chronic kidney disease [2]; [3])?
**A.** 49.77 mL/min/1.73 m^2
